Assay results published in patent US9346770B2, “Compounds having activating effect on subtypes of peroxisome proliferator-activated receptors and its preparation method and uses” (ZHEJIANG HISUN PHARMACEUTICAL CO., LTD., priority 2010, dated 2016).

Chains of the proteins cited; added tags and fusions are not shown.
UniProt Q07869, whole entry, species assumed: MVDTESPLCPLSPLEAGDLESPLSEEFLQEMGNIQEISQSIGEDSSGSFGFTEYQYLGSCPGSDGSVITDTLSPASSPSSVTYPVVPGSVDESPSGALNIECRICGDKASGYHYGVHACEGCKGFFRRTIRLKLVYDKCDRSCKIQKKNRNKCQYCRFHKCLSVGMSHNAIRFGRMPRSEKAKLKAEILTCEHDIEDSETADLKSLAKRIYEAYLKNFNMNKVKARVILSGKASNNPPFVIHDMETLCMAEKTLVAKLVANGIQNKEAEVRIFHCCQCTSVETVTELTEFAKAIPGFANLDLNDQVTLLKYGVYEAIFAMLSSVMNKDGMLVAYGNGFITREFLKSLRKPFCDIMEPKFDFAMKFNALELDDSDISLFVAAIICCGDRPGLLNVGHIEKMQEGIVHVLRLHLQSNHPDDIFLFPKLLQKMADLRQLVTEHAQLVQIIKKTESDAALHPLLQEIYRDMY

Molecular target: PPARα (Homo sapiens (Human), UniProt Q07869)
Experiment: Nuclear receptor reporter gene (luciferase) screening model, PPARα activation in HepG2 cells
Format: cell-based
Design: key: Ia: in-activated
From the text: Using a reporter gene method, a screening model for screening a nuclear receptor agonist in living cells is designed on the basis of the principal that a nuclear receptor can activate transcription of its downstream gene after being activated. A reporter gene plasmid is constructed, in which the DNA binding sequence for the nuclear receptor (NRE) is inserted at the upstream of a luciferase gene, such that the expression of the luciferase gene is regulated by the nuclear receptor. The reporter gene plasmid is transferred into a cell simultaneously with the nuclear receptor. The nuclear receptor will be activated when a nuclear receptor agonist presents in the cell culture medium. The receptor being activated can induce the expression of the luciferase gene, while the amount of generated luciferase can be determined with its luminescent substrate. In this way, the intensity of activation of the nuclear receptor by the compound can be determined by observing the luminescence intensity. For the calibration of the experimental error caused by factors such as transfection efficiency, amount of inoculated cells, toxicity of the compound, etc, a GFP plasmid is co-transfected simultaneously as the internal reference. […] The experimental results are expressed as relative activation fold, with a value of 1 for the solvent control. […]

CN(CCOc1ccc(CC2SC(=O)NC2=O)cc1)c1ccccn1 (stereo not shown) [rosiglitazone, reference compound]
EC50 PPARα: Ia
